Among the data in patent US9493432B2, “Cyclopentylbenzamide derivatives and their use for the treatment of psychotic and cognitive disorders” (Takeda Pharmaceutical Company Limited, priority 2013, dated 2016) are IC50 values, retold here.

Protein sequences, listed by entry. Tags and fused reporters are not part of them.
UniProt O43613, whole entry: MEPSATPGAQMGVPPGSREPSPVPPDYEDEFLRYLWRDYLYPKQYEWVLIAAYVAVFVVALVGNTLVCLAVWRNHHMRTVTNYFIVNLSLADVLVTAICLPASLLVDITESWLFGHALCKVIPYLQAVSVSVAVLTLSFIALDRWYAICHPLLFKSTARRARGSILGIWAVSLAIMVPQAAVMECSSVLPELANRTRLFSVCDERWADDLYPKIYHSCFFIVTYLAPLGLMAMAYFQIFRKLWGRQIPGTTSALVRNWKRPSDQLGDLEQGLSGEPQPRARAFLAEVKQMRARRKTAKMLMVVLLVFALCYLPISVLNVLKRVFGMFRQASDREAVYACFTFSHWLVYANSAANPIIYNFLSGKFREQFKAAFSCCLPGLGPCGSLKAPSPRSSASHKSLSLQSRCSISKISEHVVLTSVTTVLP

Molecules are shown by their SMILES.

This assay has as its target human orexin receptor 1 (Homo sapiens (Human), UniProt O43613). As to the kind of experiment: Orexin antagonist activity, intracellular calcium FLIPR assay (orexin receptor 1). The format is cell-based. Conditions: RBL-2H3 cells stably expressing human orexin receptor 1; Ca2+ dye FLIPR; compound 15 minutes before orexin-A at approximately 80% maximal response; read-out: Human Orexin1R IC50. As for the experimental part:
Orexin antagonist activity was determined by measuring changes in intracellular calcium levels using a Ca^2+ sensitive fluorescent dye. The changes in fluorescent signal were monitored by Fluorescent Imaging Plate Reader (FLIPR™) technology available from Molecular Devices, LLC, U.S.A. Orexin mediated increases in intracellular Ca^2+ concentration were readily detected upon activation with orexin-A. Twenty-four hours prior to the assay, RBL-2H3 cells stably expressing either human orexin receptor 1 or human orexin receptor 2 were seeded in cell culture medium in black, clear-bottom 384-well plates (commercially available from Corning Inc., U.S.A.) and grown overnight at 37° C., 5% CO2. On the day of the assay, cell culture media was removed and cells were loaded with Calcium 5 Dye (commercially sold by Molecular Devices, LLC, U.S.A.) for 1 hour at 37° C., 5% CO2. Test compounds (at 10 point half log concentration response curves from 10 μM) were added to cells for 15 minutes prior to the addition of orexin-A to all wells, to achieve a final concentration that produces approximately an 80% maximal response. The IC50 values were determined from ten point concentration response curves. Curves were generated using the average of two wells for each data point.
On the technique in general: A change in cytosolic calcium serves as a functional read-out for many receptors and channels.

For the compound `O=C(NC1CC(F)(F)CC1Nc1nc2ccc(Cl)cc2s1)c1ccccc1-n1nccn1` (single isomer, unassigned) [Example 105, N-{2-[(6-Chloro-1,3-benzothiazol-2-yl)amino]-4,4-difluorocyclopentyl}-2-(2H-1,2,3-triazol-2-yl)benzamide], the 50% inhibitory concentration (IC50) came out at 17 nM.

Turning to `O=C(NC1CC(F)(F)CC1Nc1nc2ccc(Cl)cc2s1)c1ccccc1-n1nccn1` (single isomer, unassigned) [Example 106, N-{2-[(6-Chloro-1,3-benzothiazol-2-yl)amino]-4,4-difluorocyclopentyl}-2-(2H-1,2,3-triazol-2-yl)benzamide], the concentration for half-maximal inhibition (IC50) was 564 nM.

As for `O=C(N[C@H]1CCC[C@@H]1Nc1nc2ccc(Cl)cc2s1)c1ccccc1-n1nccn1` [Example 91, N-[(1S,2S)-2-[(6-Chloro-1,3-benzothiazol-2-yl)amino]cyclopentyl]-2-(2H-1,2,3-triazol-2-yl)benzamide], the half-maximal inhibitory concentration (IC50) turned out to be 18 nM.

For orientation: IC50 means the concentration that inhibits the measured activity by half.
